# Curated experimental data: melting point values

The melting point is given in degrees Celsius. "via" names the databases from which the curators took the value.

{"smiles": "O=C(O)c1cc(Cl)cc(Cl)c1I", "name": "3,5-dichloro-2-iodo-benzoic Acid", "melting point (°C)": "174", "via": "OCHEM"}
{"smiles": "Cc1ccc(C)c(SCC(=O)O)c1", "name": "Acetic acid, [(2,5-dimethylphenyl)thio]-", "melting point (°C)": "74", "via": "OCHEM"}
{"smiles": "CCSc1ccccc1C(=O)O", "name": "2-(ethylthio)benzoic acid", "melting point (°C)": "136", "via": "OCHEM"}
{"smiles": "O=C(O)CSC(O)C(=O)c1ccccc1", "stereo": "configuration not stated", "name": "[(1-hydroxy-2-oxo-2-phenylethyl)thio]acetic acid", "melting point (°C)": "114", "via": "OCHEM"}
{"smiles": "O=C(O)c1ccccc1NS(=O)(=O)c1ccc(Br)cc1", "name": "Benzoic acid, 2-(((4-bromophenyl)sulfonyl)amino)-", "melting point (°C)": "226", "via": "OCHEM"}
{"smiles": "O=Cc1cn(-c2ccccc2)nc1-c1cccs1", "name": "1-Phenyl-3-(thiophen-2-yl)-1H-pyrazole-4-carbaldehyde", "melting point (°C)": "91", "via": "OCHEM"}
{"smiles": "Cc1c(C(=O)O)[nH]c2c1C(=O)CC(C)(C)C2", "melting point (°C)": "207", "via": "OCHEM"}
{"smiles": "COc1cc(C(=O)O)ccc1OC(C)C", "name": "4-isopropoxy-3-methoxybenzoic acid", "melting point (°C)": "141", "via": "OCHEM"}
{"smiles": "NCC(=O)NCC(=O)NCC(=O)O", "name": "Glycyl-glycyl-glycine", "melting point (°C)": "246", "via": "PubChem"}
{"smiles": "COC(=O)c1ccc(C)c(S(=O)(=O)Cl)c1", "name": "Methyl 3-(chlorosulfonyl)-4-methylbenzoate", "melting point (°C)": "46", "via": "OCHEM"}
{"smiles": "CCOC(=O)CCc1ccco1", "name": "Ethyl 2-furanpropionate", "melting point (°C)": "24.5", "via": "PubChem"}
{"smiles": "NC(=O)COc1ccccc1C(=O)O", "name": "2-(2-amino-2-oxoethoxy)benzoic acid", "melting point (°C)": "200", "via": "OCHEM"}
{"smiles": "CC1=CC(C)=NS(=O)(=O)N1", "name": "3,5-Dimethyl-1lambda~6~,2,6-thiadiazine-1,1(2H)-dione", "melting point (°C)": "120", "via": "OCHEM"}
{"smiles": "O=C(O)c1ccc(S(=O)(=O)N2CCCCCC2)cc1", "name": "4-(azepan-1-ylsulfonyl)benzoic acid", "melting point (°C)": "236", "via": "OCHEM"}
{"smiles": "COC(=O)c1cc(C)n(C)c1C", "name": "methyl 1,2,5-trimethyl-1H-pyrrole-3-carboxylate", "melting point (°C)": "116.5", "via": "OCHEM"}
{"smiles": "CCn1c(-c2ccncc2)n[nH]c1=S", "name": "4-ethyl-5-pyridin-4-yl-4h-[1,2,4]triazole-3-thiol", "melting point (°C)": "141", "via": "OCHEM"}
{"smiles": "COc1ccc(Cl)cc1N1CC(C(=O)O)CC1=O", "stereo": "configuration not stated", "melting point (°C)": "152", "via": "OCHEM"}
{"smiles": "CC1(C)NCCS1", "name": "2,2-Dimethylthiazolidine", "melting point (°C)": "13", "via": "eChemPortal"}
{"smiles": "Nc1ccccc1C(=O)NCc1ccccc1", "name": "2-amino-N-benzylbenzamide", "melting point (°C)": "126", "via": "OCHEM"}
{"smiles": "Nc1ccccc1-n1cnnn1", "name": "2-(1H-Tetrazol-1-yl)aniline", "melting point (°C)": "85", "via": "OCHEM"}
{"smiles": "CC(=O)N(C)c1ccccc1C(=O)O", "name": "Benzoic acid, 2-((acetylmethyl)amino)-", "melting point (°C)": "197", "via": "OCHEM"}
{"smiles": "CNS(=O)(=O)c1ccc(CN)cc1", "name": "4-(Aminomethyl)-N-methylbenzene-1-sulfonamide", "melting point (°C)": "112", "via": "OCHEM"}
{"smiles": "O=C(O)Cn1nnc(-c2cccs2)n1", "name": "(5-thien-2-yl-2H-tetrazol-2-yl)acetic acid", "melting point (°C)": "221", "via": "OCHEM"}
{"smiles": "O=[N+]([O-])c1cc(S(=O)(=O)N2CCOCC2)ccc1Cl", "name": "4-(4-Chloro-3-nitro-benzenesulfonyl)-morpholine", "melting point (°C)": "154", "via": "OCHEM"}
{"smiles": "CCOC(=O)c1noc(N)c1-c1ccccc1", "name": "Ethyl 5-amino-4-phenyl-1,2-oxazole-3-carboxylate", "melting point (°C)": "111", "via": "OCHEM"}
{"smiles": "CC1(c2ccccc2)NC(=O)N(N)C1=O", "stereo": "configuration not stated", "name": "3-amino-5-methyl-5-phenylimidazolidine-2,4-dione", "melting point (°C)": "170", "via": "OCHEM"}
{"smiles": "O=C(O)C#Cc1ccccc1Cl", "name": "3-(2-Chlorophenyl)-2-propynoic acid", "melting point (°C)": "133.2", "via": "PubChem"}
{"smiles": "COC(=O)c1ccc(N)s1", "name": "Methyl 5-aminothiophene-2-carboxylate", "melting point (°C)": "116", "via": "OCHEM"}
{"smiles": "COc1cc2[nH]c(=N)sc2cc1OC", "name": "2-Benzothiazolamine, 5,6-dimethoxy-", "melting point (°C)": "225", "via": "OCHEM"}
{"smiles": "CNC1=NS(=O)(=O)c2ccccc21", "name": "3-(Methylamino)-1H-1lambda~6~,2-benzothiazole-1,1-dione", "melting point (°C)": "270", "via": "OCHEM"}
{"smiles": "CCC(=O)CC#N", "name": "3-oxopentanenitrile", "melting point (°C)": "28.5", "via": "OCHEM"}

The last 2 entries again:

{"smiles": "CNC1=NS(=O)(=O)c2ccccc21", "name": "3-(Methylamino)-1H-1lambda~6~,2-benzothiazole-1,1-dione", "melting point (°C)": "270", "via": "OCHEM"}
{"smiles": "CCC(=O)CC#N", "name": "3-oxopentanenitrile", "melting point (°C)": "28.5", "via": "OCHEM"}

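The numbers are reported measurements, compiled and curated for the OPERA QSAR suite. One number stands for a compound and property, with no spread given. How each value was measured is not recorded, so precision varies. A value may pool stereoisomers or salt forms, and the file does not say which form was measured. Unmarked limits or estimates from the upstream databases cannot be ruled out.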

Values as listed in the OPERA 2.9 repository of K. Mansouri.